Data on 1 molecule can be found in article PMC5462532 (Structure(London, England:1993), 2017).

This experiment deals with T1, His-Ub, the ubiquitin moiety of the UbcH7∼Ub conjugate in the crystal (human, UniProt P0CG47, in part, C-terminus isopeptide-linked to K86 of UbcH7).
T1 construct: ubiquitin, human, with His tag (His-Ub); Written alone for the contacts of the Ub moiety with the UBA-L domain of a symmetry-related HHARI; it stood there joined to UbcH7(C86K); source: E. coli, purified (Ni2+ pulldown, SEC); in the crystal as part of the conjugate m10
Kind of experiment: crystal structure; HHARI 90-557 with UbcH7(C86K)-His-Ub mixed 1:1, hanging drop, PEG 5000 MME, HEPES pH 7.0, Tacsimate; Zn-SAD, 3.24 Å. The settings on record: both partners purified.

B1: HHARI (residues 90-557) (enzyme, human, UniProt Q9Y4X5 90-557, looked up)
chain: GPGHEQEEDYRYEVLTAEQILQHMVECIREVNEVIQNPATITRILLSHFNWDKEKLMERYFDGNLEKLFAECHVINPSKKSRTRQMNTRSSAQDMPCQICYLNYPNSYFTGLECGHKFCMQCWSEYLTTKIMEEGMGQTISCPAHGCDILVDDNTVMRLITDSKVKLKYQHLITNSFVECNRLLKWCPAPDCHHVVKVQYPDAKPVRCKCGRQFCFNCGENWHDPVKCKWLKKWIKKCDDDSETSNWIAANTKECPKCHVTIEKDGGCNHMVCRNQNCKAEFCWVCLGPWEPHGSAWYNCNRYNEDDAKAARDAQERSRAALQRYLFYCNRYMNHMQSLRFEHKLYAQVKQKMEEMQQHNMSWIEVQFLKKAVDVLCQCRATLMYTYVFAFYLKKNNQSIIFENNQADLENATEVLSGYLERDISQDSLQDIKQKVQDKYRYCESRRRVLLQHVHEGYEKDLWEYIED
notes: also called HHARI (in the structure sections); not shown: GST, N-terminal, cleaved
Consider B1, for which the binding result was “binds”.
